Assay results published in paper PMC5572076 (Xenobiotica; the fate of foreign compounds in biological …, 2016).

What was measured:
[1] = NAC plasma pharmacokinetics with or without probenecid, intraperitoneal; type: in vivo, Sprague-Dawley rats; conditions: starting at 2 h after administration, vs NAC alone
[2] = type: in vivo, Sprague-Dawley rats; conditions: differences from 1 h up to 4 h, vs NAC alone

CCCN(CCC)S(=O)(=O)c1ccc(C(=O)O)cc1 [probenecid]
effect of probenecid on NAC plasma concentrations [1]: increased significantly | effect of probenecid on NAC brain concentration-time profile [2]: significantly increased
